# Experimental data as given in PubChem BioAssay AID2112 (National Center for Advancing Translational Sciences (NCATS), 2009).
# “And” between values parts separate entries of the source, which are not always exact repeats. Equal values may be shown once. The list shows a part of the results, in another mix than the full data. The source made the active and inactive calls. Calls follow the shape of the dose curve; as a rule, active = well fitted inhibition curve with a large enough effect; inconclusive = small, poorly fitted or top-dose-only effect, or effect the other way, or another doubt; inactive = no such curve, though single readings can be large or run the other way.
# Biological target: Lysosomal alpha-glucosidase (Homo sapiens) (UniProt P10253)
# Assay: qHTS Assay for Inhibitors and Activators of Human alpha-Glucosidase From Spleen Homogenate;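 also: 0% = enzyme with vehicle and -100% = no enzyme basal signal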
# Conditions: 4-MU-alpha-glucoside fluorescence; at 79.9 µM (top of the series) unless noted
# Description: NIH Chemical Genomics Center [NCGC] NIH Molecular Libraries Probe Production Centers Network [MLPCN] MLPCN Grant: R03 MH084841-01 Assay Submitter (PI): Wei Zheng NCGC Assay Overview: Alpha-glucosidase is responsible for the hydrolysis of terminal, non-reducing 1,4-linked alpha-D-glucose residues, which releases alpha-D-glucose. It is a lysosomal hydrolase that is required for the degradation of a small percentage (1-3%) of cellular glycogen in humans. Deficiency of this enzyme results in glycogen-storage disease type II (GSDII), also referred to as Pompe disease, an autosomal recessive disorder. Structurally normal glycogen is accumulated in the lysosomes and cytoplasm in affected patients, primarily in muscle tissues. Excessive glycogen storage within lysosomes may interrupt normal functioning of other organelles and leads to cellular injury. In turn, this leads to enlargement and dysfunction of the entire organ involved (eg: cardiomyopathy and muscle weakness). It has been reported that the improper folding and trafficking of alpha-glucosidase resulting from genetic mutations may account for a significant number of Pompe patients. […] We optimized this alpha-glucosidase assay in 1536-well plate format for identification of novel small molecule inhibitors or activators with structures other than the sugar analogs in order to develop new pharmacological chaperones. In particular, this assay is directed towards discovering compounds active in a more natural setting, tissue homogenate, that may have been missed by screens of the purified enzyme under more stringent conditions.
# NCGC Assay Protocol Summary: This is a fluorogenic enzyme assay with 4-methylumbelliferyl-alpha-D-glucopyranoside as the substrate and human spleen homogenate containing alpha-glucosidase as the enzyme preparation. Upon hydrolysis of this fluorogenic substrate, the resulting product, 4-methylumbelliferone (which excites at 365 nm and emits at 440 nm) can be detected by a fluorescence plate reader. Data were normalized to the controls for basal activity (without enzyme) and 100% activity (with enzyme). The AC50 values were determined from concentration-response data modeled with the standard Hill equation. Assay buffer: 50 mM citric acid (titrated with potassium phosphate to pH 5.0), 0.01% Tween-20 (pH 5.0 is an optimal condition for this enzyme assay) 1536-well assay protocol for the alpha-glucosidase from human spleen homogenate: (1) Add 2 ul/well spleen homogenate (1 ug) (2) Add 23 nL compounds in DMSO solution. The final titration was 0.5 nM to 58 uM. (3) Add 2 ul of substrate (1 mM final) (4) Incubate at 37 C for 40 min (5) Add 2 ul stop solution (1M NaOH and 1M Glycine mixture, pH 10) (6) Detect the assay plate in a ViewLux plate reader (PerkinElmer) with Ex=365 nm and Em=440nm. Keywords: Alpha-glucosidase, Pompe Disease, pharmacological chaperone, chaperone therapy, high throughput screening, alpha-glucosidase inhibitor, MLSMR, MLSCN, NIH Roadmap, qHTS and NCGC
row,Structure (SMILES),"activity change, negative = inhibition"
1,Oc1ccccc1CNc1ccccn1,inactive: 5%
2,O=C(NC(Sc1ccncn1)C(Cl)(Cl)Cl)c1ccccc1 (stereo unspecified),inactive: -2.72%
3,Cc1c2non([O-])c-2c(C)[n+](=O)[n+]1[O-],inactive: -27.9%
4,Nc1cc(N)c2nonc2c1[N+](=O)[O-],inactive: -5.54%
5,CC(C)CC(=O)NC(Sc1ccc(Cl)cc1)C(Cl)(Cl)Cl (stereo unspecified),inactive: -5.65%
6,O=P(Nc1nc2ccc(Cl)cc2s1)(c1ccccc1)c1ccccc1,inactive: 3.33%
7,CC(=O)Nc1ccc([As](=O)(O)O)cc1,inactive: 3.56%
8,O=C(O)c1ccccc1[As](=O)(O)O,inactive: -4.41%
9,Cc1cc(SC(NC(=O)c2ccc(F)cc2)C(Cl)(Cl)Cl)ncn1 (stereo unspecified),inactive: -3.66%
10,CCOP(=O)(Nc1ccccc1)OCC,inactive: 0.0449% and inactive: 4.5%
11,Cc1ccc(NP(=O)(Oc2ccccc2F)Oc2ccccc2F)nc1,inactive: 1.86%
12,Nc1cccc2ccc([As](=O)(O)O)cc12,inactive: -0.725%
13,CCN(N=Nc1nonc1N)c1nonc1N,inactive: 6.2%
14,O=C(Nc1cc([As](=O)(O)O)ccc1O)c1ccccc1,inactive: 5.63%
15,O=[N+]([O-])c1ncn(CCn2ncnc2[N+](=O)[O-])n1,inactive: 5.84%
16,CC(C)(C)C(=O)NC(Sc1ccncn1)C(Cl)(Cl)Cl (stereo unspecified),inactive: -9.65%

row,Structure (SMILES),"activity change, negative = inhibition"
1,O=C(O)CNc1ccc([As](=O)(O)O)cc1,inactive: 2.31%
2,O=[N+]([O-])c1cccc(NC2=NCC(CBr)S2)c1 (stereo unspecified),inactive: 2.76%
3,COc1ccc(C2=NCC(CBr)S2)cc1 (stereo unspecified),inactive: 4.85%
4,Cc1ccc(NP(=O)(Oc2ccccc2)Oc2ccccc2)nc1,inactive: 3.5%
5,CCc1nc2c(n1)c1c(non1O)c1c2no[n+]1[O-],inactive: -1.44%
6,O=[N+]([O-])c1cc([N+](=O)[O-])c(CCNc2ccccc2)c([N+](=O)[O-])c1,inactive: -4.98%
7,O=[N+]([O-])c1cccc2n[nH]nc12,inactive: 0.53%
8,CC(=O)N1C2C3N(C(C)=O)C1C1N(C(C)=O)C(C(N1C(C)=O)N3C(C)=O)N2C(C)=O,inactive: -16.6%
9,CCN(/C(=N/P(=O)(N1CCOCC1)N1CCOCC1)N1CCOCC1)c1ccc(OC)cc1,inactive: -4.8%
10,Nc1ccc([As](=O)(O)c2ccc(N)cc2)cc1,inactive: 0.449%
11,C[N+]1=C2C=CC=CC=C2SC12C([N+](=O)[O-])=CC([N+](=O)[O-])=C[C-]2[N+](=O)[O-] (stereo unspecified),inactive: -9.3%
12,CC(=O)C1=CCCC2CCC1N2 (stereo unspecified),inactive: 7.18% and inactive: -3.45%
13,CC1CCN(C(=O)Oc2c(Cl)cc(Cl)c3cccnc23)CC1,inactive: -7%
14,CC(C)=N/N=C(\N)N[N+](=O)[O-],inactive: -4.17%
15,CN(C)C(=O)OCCc1n(C)cc[n+]1C,inactive: -7.54%
